Test results published in ChEMBL document CHEMBL1143618, “Discovery of a beta-MSH-derived MC-4R selective agonist” (J Med Chem, 2005).

Protein sequences, listed by entry. Tags and fused reporters are not part of them. Lines headed by an entry give the natural chain unless they say otherwise; changes in a name come on top.
UniProt P41968: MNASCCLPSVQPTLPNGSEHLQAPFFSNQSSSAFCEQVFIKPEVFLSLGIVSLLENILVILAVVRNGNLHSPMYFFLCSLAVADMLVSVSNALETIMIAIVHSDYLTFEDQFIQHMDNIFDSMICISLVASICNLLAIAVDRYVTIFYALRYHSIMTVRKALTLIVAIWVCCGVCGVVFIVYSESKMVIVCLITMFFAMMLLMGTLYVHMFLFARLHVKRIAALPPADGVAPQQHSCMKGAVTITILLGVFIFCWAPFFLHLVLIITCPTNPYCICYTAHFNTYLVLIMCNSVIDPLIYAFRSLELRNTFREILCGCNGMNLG

Target: Melanocortin receptor 3 (Homo sapiens, UniProt P41968)
Assay: Percent efficacy at human Melanocortin-3 receptor for cAMP release
Format: functional

Relative efficacy [%]	SMILES
84.1	CC(=O)N[C@@H](CCCN=C(N)N)C(=O)N[C@H]1CSSC[C@@H](C(N)=O)NC(=O)[C@H](Cc2c[nH]c3ccccc23)NC(=O)[C@@H](CCCN=C(N)N)NC(=O)[C@@H](Cc2ccccc2)NC(=O)[C@@H](Cc2c[nH]cn2)NC(=O)[C@H](CCC(=O)O)NC1=O
87.3	CC(=O)N[C@H](CCCN=C(N)N)C(=O)N[C@H]1CSSC[C@@H](C(N)=O)NC(=O)[C@H](Cc2c[nH]c3ccccc23)NC(=O)[C@@H](CCCN=C(N)N)NC(=O)[C@@H](Cc2ccccc2)NC(=O)[C@@H](Cc2c[nH]cn2)NC(=O)[C@H](CCC(=O)O)NC1=O
